Test results from patent EP1142587A1 (priority 1998, dated 2000).

tested on: ddY male mice; assay: Analgetic action determined by hot plate test; assay type: in vivo; details: intraperitoneally, 30 minutes after administration, 52°C hot plate

Row | Compound | ED50 value regarding analgetic effect [mg/kg]
1 | Cc1ccc(CN2CCC3(CC2)C(=O)NCN3c2ccccc2)cc1 [Example 23, 1'-(4-methylbenzyl)-spiroimidazolidine-4,4'-piperidine-3-phenyl-5-on] | 7.23
2 | Cc1ccc(CN2CCC3(CC2)C(=O)NCN3c2ccccc2)cn1 [Example 16, 1'-(6-methyl-3-pyridyl)methyl-spiroimidazolidine-4,4'-piperidine-3-phenyl-5-on] | 1.98
3 | O=C1NCN(c2ccccc2)C12CCN(Cc1ccc(Br)cc1)CC2 [Example 18, 1'-(4-bromobenzyl)-spiroimidazolidine-4,4'-piperidine-3-phenyl-5-on] | 7.76
4 | O=C1NCN(c2ccccc2)C12CCN(Cc1cccnc1)CC2 [Example 17, 1'-(3-pyridyl)methyl-spiroimidazolidine-4,4'-piperidine-3-phenyl-5-on] | 15.1
5 | O=C1NCN(c2ccccc2)C12CCN(Cc1ccc(Cl)nc1)CC2 [Example 15, 1'-(6-chloro-3-pyridyl)methyl-spiroimidazolidine-4,4'-piperidine-3-phenyl-5-on] | 1.79
6 | COc1ccc(CN2CCC3(CC2)C(=O)NCN3c2ccccc2)cc1 [Example 14, 1'-(4-methoxybenzyl)-spiroimidazolidine-4,4'-piperidine-3-phenyl-5-on] | 2.99

tested on: Mice; assay: Influence on locomotor activity; details: intraperitoneally, measured for 2 hours with infrared sensor

Row | Compound | effect on locomotor activity
7 | 1'-(2-naphtylmethyl)-spiroimidazolidine-4,4'-piperidine-3-phenyl-5-on | no effect on locomotor activity
